# The list shows a part of the results, in another mix than the full data. Calls of active or inactive are those of the source. Cut-off read from the data, not from the text of the source: active = activation mostly above about 9.5% (no sharp cut-off); inactive = mostly below about 7.6%.
# Sequences of proteins named here, by UniProt entry; tags and fusion partners are left off.
# UniProt P47898, whole entry, looked up: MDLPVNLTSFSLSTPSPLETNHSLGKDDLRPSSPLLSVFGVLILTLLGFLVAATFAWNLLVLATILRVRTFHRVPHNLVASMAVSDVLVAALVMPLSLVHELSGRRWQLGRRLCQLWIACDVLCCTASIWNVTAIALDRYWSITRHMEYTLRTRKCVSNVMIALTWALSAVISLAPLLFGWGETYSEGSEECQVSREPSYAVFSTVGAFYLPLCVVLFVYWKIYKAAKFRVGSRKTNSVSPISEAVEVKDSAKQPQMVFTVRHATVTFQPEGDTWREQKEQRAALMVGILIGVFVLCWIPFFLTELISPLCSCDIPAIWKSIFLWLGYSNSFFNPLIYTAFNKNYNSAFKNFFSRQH
# Molecular target: 5-hydroxytryptamine receptor 5A (Homo sapiens) (UniProt P47898)
# Assay: activation of human 5-HT5A receptor – cell-based, luminescence, full-deck HTS, counter-screen for OPRM1-OPRD1 heterodimer agonist project, primary screen (AID 504692);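 note: 0% = cells with vehicle only and 100% = reference agonist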
# Details: HTR5A agonist assay, at 9.3 µM, active compounds read high
row,Compound,activation
1,Cc1ccccc1OP(=O)(Nc1ccccn1)Oc1ccccc1C,inactive: 4.56%
2,CCOC(=O)C1=C(Cn2cnc3ccccc32)NC(=O)NC1c1ccc(Cl)cc1 (centres undefined),inactive: 2.49%
3,CN(C)CCn1cnc2ccccc21,inactive: -0.16%
4,O=c1c2cc([N+](=O)[O-])ccc2[nH]c2c([N+](=O)[O-])cc([N+](=O)[O-])cc12,inactive: 0.83%
5,CN(C)C(=O)Oc1noc2ccccc12,inactive: 2.09%
6,Cc1ccc(OCCNC(=O)Cn2cnc3c(=O)n(C)c(=O)n(C)c32)cc1C,inactive: -2.25%
7,O=C(NC1CCS(=O)(=O)C1)NP(=S)(Oc1ccccc1)Oc1ccccc1 (centres undefined),inactive: 0.7%
8,COc1cccc(NC(=O)[C@H](C)NC(=O)N2CCn3c2nc2ccccc23)c1,inactive: -1.83%
9,CCNC(=S)/N=C(\N)N[N+](=O)[O-],inactive: -5.47%
10,CCSc1nc2ccccc2n1CC(=O)N1CCOCC1,inactive: 2.33%
11,COc1cc(/C=N/NC(=O)Cn2cnc3c2c(=O)n(C)c(=O)n3C)ccc1O,inactive: -1.61%
12,Cc1nc2ccccc2n1C1CC(=O)N(Cc2ccccc2)C1=O (centres undefined),inactive: 0.35%
13,CC(c1ccccc1)N1CCn2c(nc3cc(NS(C)(=O)=O)ccc32)C1 (centres undefined),inactive: 6.25%
14,S=C(Nc1ccccc1)N1CCn2c1nc1ccccc12,inactive: -0.16%
15,c1ccc(CN2CCN(CCN3CCn4c3nc3ccccc34)CC2)cc1,inactive: -2.88%
16,O=C(Cn1c(-c2ccco2)nc2ccccc21)N1CCCCC1,inactive: 2.67%
17,O=C(C1CCCN1S(=O)(=O)c1cccc2cccnc12)N1CCn2c1nc1ccccc12 (centres undefined),inactive: 4.49%
18,Cn1c(=O)c2ncn(CC(=O)Nc3ccc(N4CCOCC4)cc3)c2n(C)c1=O,inactive: 4.34%
19,CCOC(=O)C1CCCN(C(=O)Cn2cnc3c2c(=O)n(C)c(=O)n3C)C1 (centres undefined),inactive: -2.84%
20,Cc1ccc(Cn2c(=O)c3c(nc4n3CCN4Cc3ccco3)n(C)c2=O)cc1,inactive: 0.12%

row,Compound,activation
1,CC(C)(C)C(=O)N1CCn2c1nc1ccccc12,inactive: -2.78%
2,Cc1nc2cc(C(F)(F)F)ccc2n1CCNc1nc(-c2cc(Cl)c(N)c(Cl)c2)cs1,inactive: 2.13%
3,Cn1c(=O)c2c(ncn2CC(=O)N2CCN(C(=O)c3ccco3)CC2)n(C)c1=O,inactive: 0.12%
4,O=S(=O)(c1ccccc1)N1CCn2c(nc3ccccc32)C1,inactive: -3.29%
5,CCOC(=O)CSc1nc2ccccc2n1CC(=O)N(C(C)C)C(C)C,inactive: -1.58%
6,Cn1c(=O)c2c(ncn2CCNC2=NCCCCC2)n(C)c1=O,inactive: -0.54%
7,COc1ccc(NS(=O)(=O)c2cc(NC(=O)Cn3cnc4c3c(=O)n(C)c(=O)n4C)ccc2C)cc1,inactive: -2.79%
8,O=C1NCN(c2ccccc2)C12CCNCC2,inactive: 2.25%
9,O=C(Cn1cnc2c(NCc3ccccc3)ncnc21)NCc1ccc2[nH]ccc2c1,inactive: 0.42%
10,O=C(c1ccc(Cl)cc1)N1CCn2c1nc1ccccc12,inactive: 1.32%
11,O=P1(N(CCCl)CCCl)OCCC2CCCCN21 (centres undefined),inactive: -2.13%
12,CC(C)NC(=O)Cn1c(SCC(=O)N2c3ccccc3CC2C)nc2ccccc21 (centres undefined),inactive: 0.72%
13,Cc1ccc(CN2C(=O)c3ccccc3NC23CCN(Cc2ccccc2)CC3)cc1,inactive: -4.27%
14,CC(=O)NC(C)c1nc2ccccc2n1CC(=O)N1C(C)CCCC1C (centres undefined),inactive: 3.82%
15,CCCS(=O)(=O)N1CCn2c(nc3ccccc32)C1,inactive: 1.55%
16,CCC(=O)Nc1cccc(C(=O)/C=C/c2cc(Br)ccc2OC)c1,inactive: -4.89%
17,O=C(Cn1c(-c2cscn2)nc2ccccc21)Nc1ccccc1F,inactive: 7.71%
18,O=C(Nc1nc2ccccc2n1CCN1CCCCC1)c1ccco1,inactive: 5.05%
19,O=S(=O)(c1ccccc1)c1nnn2c1nc(NC1CCN(Cc3ccccc3)CC1)c1ccccc12,inactive: 1.95%
20,O=C(Cn1cnc2c(NCc3ccccc3)ncnc21)N1CCN(c2ccccn2)CC1,inactive: -1.47%

row,Compound,activation
1,COc1ccccc1C(=O)Nc1ccc2c(c1)nc1n2CCN(C2CCCCC2)C1,inactive: 6.1%
2,CC(NC(=O)CCNC(=O)N1CCn2c1nc1ccccc12)c1ccccc1 (centres undefined),inactive: -3.59%
3,CC1Cc2ccccc2N1C(=O)Cn1cnc2c1c(=O)n(C)c(=O)n2C (centres undefined),inactive: 2.44%
4,O=C(Nc1nc2ccccc2n1CCN1CCCCC1)C1CCCCC1,inactive: -5.69%
5,Cn1c(=O)c2c(nc(CN3CCN(C(=O)c4ccco4)CC3)n2CC(N)=O)n(C)c1=O,inactive: 1.07%
6,Cc1ccc(-c2csc(NCCn3c(C(F)(F)F)nc4ccccc43)n2)cc1,inactive: -0.03%
7,CC(O)CNc1nc2ccccc2n1CC(=O)NCCc1ccc(Cl)cc1 (centres undefined),inactive: 2.87%
8,CN(CC(=O)Nc1cccc(F)c1)C(=O)Cn1cnc2c1c(=O)n(C)c(=O)n2C,inactive: -2.56%
9,CC(C)NC(=O)Cn1c(SCC(=O)N2CCCCCC2)nc2ccccc21,inactive: -2.41%
10,COc1ccc(CCNC(=O)Cn2c(-c3nonc3N)nc3ccccc32)cc1OC,inactive: 2.2%
11,O=C(Cn1c(COc2ccccc2)nc2ccccc21)Nc1cc(Cl)ccc1Cl,inactive: 4.48%
12,COc1ccc(CC(=O)N2CCC(Nc3nc4ccccc4n3Cc3ccc(F)cc3)CC2)cc1,inactive: 2.45%
13,Cc1ccccc1NC(=O)Cn1cnc2c1c(=O)n(C)c(=O)n2C,inactive: 3.73%
14,O=C(NCCn1c(C(F)(F)F)nc2ccccc21)[C@H]1CCCN1c1nc(CN2CCCCC2)cs1,inactive: 8.98%
15,COc1ccc(N2C(=O)CC(n3c(CCCCO)nc4ccccc43)C2=O)cc1 (centres undefined),inactive: 2.62%
16,O=C(Cn1c(-c2cncs2)nc2ccccc21)NCc1ccccc1,inactive: -1.24%
17,Cn1c(=O)c2c(ncn2CC(N)=O)n(C)c1=O,inactive: -0.57%
18,CC1CN(Cc2nc3c(c(=O)[nH]c(=O)n3C)n2CCN2CCOCC2)CC(C)O1 (centres undefined),inactive: 2.61%
19,O=C(CCC(=O)Nc1ccccc1)N/N=C/C=C/c1ccccc1,inactive: 6.09%

# From PubChem BioAssay AID504692 (The Scripps Research Institute Molecular Screening Center, 2011)
